Experimental data as given in patent publication US20210290524A1, “TOPICAL TRPV1 ANTAGONISTS AND METHODS AND COMPOSITIONS THEREOF” (CHILDREN'S MEDICAL CENTER CORPORATION, priority 2016, published 2021).

Chains of the proteins cited; added tags and fusions are not shown.
UniProt O35433, whole entry: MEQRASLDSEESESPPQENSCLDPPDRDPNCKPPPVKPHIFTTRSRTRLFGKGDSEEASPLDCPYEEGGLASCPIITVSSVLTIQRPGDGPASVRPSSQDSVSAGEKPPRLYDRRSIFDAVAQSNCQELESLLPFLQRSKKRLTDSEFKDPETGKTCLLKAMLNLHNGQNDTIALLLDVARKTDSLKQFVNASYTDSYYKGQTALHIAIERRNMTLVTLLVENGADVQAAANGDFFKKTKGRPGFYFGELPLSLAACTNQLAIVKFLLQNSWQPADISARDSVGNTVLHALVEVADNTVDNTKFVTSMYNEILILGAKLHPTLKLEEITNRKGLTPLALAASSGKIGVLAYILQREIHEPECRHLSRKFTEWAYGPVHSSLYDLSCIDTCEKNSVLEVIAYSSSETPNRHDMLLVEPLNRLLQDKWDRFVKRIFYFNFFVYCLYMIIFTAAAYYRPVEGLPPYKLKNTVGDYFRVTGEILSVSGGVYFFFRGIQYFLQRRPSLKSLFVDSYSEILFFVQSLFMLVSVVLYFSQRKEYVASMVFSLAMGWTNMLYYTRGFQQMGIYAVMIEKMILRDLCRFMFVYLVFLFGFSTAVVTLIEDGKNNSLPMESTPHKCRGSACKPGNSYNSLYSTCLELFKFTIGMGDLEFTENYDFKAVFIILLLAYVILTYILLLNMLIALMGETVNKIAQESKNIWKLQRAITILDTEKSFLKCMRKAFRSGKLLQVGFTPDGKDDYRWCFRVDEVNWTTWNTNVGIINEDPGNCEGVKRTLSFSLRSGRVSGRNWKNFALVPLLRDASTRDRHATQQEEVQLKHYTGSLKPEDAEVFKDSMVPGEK

Target: rTRPV1 (Rattus norvegicus, UniProt O35433)
Details: concentration response with capsaicin; HEK rTRPV1

NC(=O)CC[C@H](N)C(=O)N[C@@H](CCCN=C(N)N)C(=O)N[C@@H](Cc1ccccc1)C(=O)N[C@@H](CO)C(=O)N[C@@H](CCCN=C(N)N)C(=O)O [opiorphin]
concentration at which activity was seen: 10 nM
